Earlier results in paper PMC9256694.

Protein sequences, listed by entry. Tags and fused reporters are not part of them. Residues count along the entry.
UniProt P01589, 22-240, chain 1 of 3: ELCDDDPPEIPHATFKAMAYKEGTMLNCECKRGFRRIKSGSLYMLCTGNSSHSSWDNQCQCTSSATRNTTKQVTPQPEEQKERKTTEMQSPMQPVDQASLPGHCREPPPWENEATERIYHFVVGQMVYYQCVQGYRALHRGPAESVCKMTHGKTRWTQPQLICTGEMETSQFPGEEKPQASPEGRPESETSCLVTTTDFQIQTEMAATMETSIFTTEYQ
UniProt P60568, 21-153: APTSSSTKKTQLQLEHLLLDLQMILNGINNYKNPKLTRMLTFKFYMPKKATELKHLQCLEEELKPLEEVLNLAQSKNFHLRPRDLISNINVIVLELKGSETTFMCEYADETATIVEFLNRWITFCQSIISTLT

Target: IL-2 receptor alpha/beta/gamma heterotrimer (Homo sapiens) (UniProt P01589)

Kd: 0.01 nM
Substance: IL-2 (from UniProt P60568)
